The source of these data is PMC12951430, “Modular Vinyl Phosphonamidates for Cysteine-Directed Protein Targeting” (Journal of the American Chemical Society, 2026).

By UniProt entry, the sequences of proteins in these tests, tags left out.
UniProt Q06187, whole entry: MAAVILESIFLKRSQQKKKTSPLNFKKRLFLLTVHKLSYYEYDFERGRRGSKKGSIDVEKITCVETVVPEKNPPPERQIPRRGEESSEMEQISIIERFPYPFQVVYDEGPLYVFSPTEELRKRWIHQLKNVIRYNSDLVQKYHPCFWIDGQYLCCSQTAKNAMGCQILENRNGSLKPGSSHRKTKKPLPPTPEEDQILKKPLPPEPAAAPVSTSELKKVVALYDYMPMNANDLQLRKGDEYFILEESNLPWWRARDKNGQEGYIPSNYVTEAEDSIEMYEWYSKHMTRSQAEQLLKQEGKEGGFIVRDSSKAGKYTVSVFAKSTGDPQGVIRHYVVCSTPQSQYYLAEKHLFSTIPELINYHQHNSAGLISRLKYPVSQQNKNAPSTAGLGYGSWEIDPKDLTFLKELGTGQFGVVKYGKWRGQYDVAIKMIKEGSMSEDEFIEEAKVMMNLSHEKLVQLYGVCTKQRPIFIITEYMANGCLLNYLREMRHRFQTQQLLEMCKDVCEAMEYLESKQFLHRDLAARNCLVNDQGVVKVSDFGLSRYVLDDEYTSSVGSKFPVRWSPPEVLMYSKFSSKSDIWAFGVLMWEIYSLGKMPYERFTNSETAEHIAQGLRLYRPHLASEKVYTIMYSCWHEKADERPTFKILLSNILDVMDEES

For orientation: DC50 means the midpoint of the concentration-degradation curve. The low end stands for a more potent degrader, the high end for a less potent degrader.

The target of test [1] is BTK in RAMOS cells (Homo sapiens, UniProt Q06187). In words: PROTAC-mediated BTK degradation, anti-BTK Western blot. As to conditions: 24 h, 37 °C. A general note: Immunoblotting shows a protein as a band on a membrane.
Test [2] concerns RAMOS cells. The test is described as follows: Proteome-wide selectivity of PROTAC 14 (label-free quantitative proteomics). As to conditions: 0.625 μM, 24 h, 37 °C, p <0.01.

Molecules are shown by their SMILES.

With `C=CP(=O)(Nc1ccccc1Cn1nc(-c2ccc(Oc3ccccc3)cc2)c2c(N)ncnc21)OCCc1cn(CCOCCOCCOCCNc2cccc3c2C(=O)N(C2CCC(=O)NC2=O)C3=O)nn1` (stereo not shown), in test [1], the DC50 came to 440 nM and the DCMAX entry was “around 77%”. This compound also gave a DMAX in test [1] (second-order polynomial fit) of 2 µM. Also, in test [2], the “proteins depleted (proteome-wide selectivity)” value is “only BTK and the known Ibrutinib off-target BLK were depleted by more than 50%”.
